Consider eight molecules from ChEMBL document CHEMBL5512616, “pH regulators and their inhibitors in tumor microenvironment” (Eur J Med Chem, 2024).

Chains of the proteins cited; added tags and fusions are not shown.
UniProt P19634, whole entry: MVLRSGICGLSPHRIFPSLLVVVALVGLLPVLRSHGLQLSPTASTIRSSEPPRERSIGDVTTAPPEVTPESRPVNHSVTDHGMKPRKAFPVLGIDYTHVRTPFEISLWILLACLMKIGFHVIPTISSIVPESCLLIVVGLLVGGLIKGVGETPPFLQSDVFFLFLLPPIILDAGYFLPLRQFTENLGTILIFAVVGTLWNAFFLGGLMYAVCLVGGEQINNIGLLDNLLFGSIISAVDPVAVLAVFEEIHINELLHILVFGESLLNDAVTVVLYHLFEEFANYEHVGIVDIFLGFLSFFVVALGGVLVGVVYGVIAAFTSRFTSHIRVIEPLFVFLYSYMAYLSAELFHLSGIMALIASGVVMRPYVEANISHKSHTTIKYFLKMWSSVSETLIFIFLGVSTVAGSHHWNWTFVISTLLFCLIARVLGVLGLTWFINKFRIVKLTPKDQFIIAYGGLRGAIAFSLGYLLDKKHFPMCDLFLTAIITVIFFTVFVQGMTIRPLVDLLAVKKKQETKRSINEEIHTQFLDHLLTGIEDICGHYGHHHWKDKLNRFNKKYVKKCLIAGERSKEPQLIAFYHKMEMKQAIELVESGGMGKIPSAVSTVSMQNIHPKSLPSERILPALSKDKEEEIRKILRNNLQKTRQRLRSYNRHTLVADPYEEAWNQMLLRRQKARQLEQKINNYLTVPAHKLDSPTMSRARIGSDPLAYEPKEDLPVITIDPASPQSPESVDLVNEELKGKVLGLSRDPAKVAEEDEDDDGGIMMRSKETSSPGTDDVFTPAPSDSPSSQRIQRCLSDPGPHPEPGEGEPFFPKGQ

The target of experiment [1] is Sodium/hydrogen exchanger 1 (Homo sapiens, UniProt P19634). Conditions: dose 1.0 µM.
Experiment [2] deals with T1, Monocarboxylate transporter 1 (Homo sapiens) (UniProt P53985).
T1 sequence (whole entry): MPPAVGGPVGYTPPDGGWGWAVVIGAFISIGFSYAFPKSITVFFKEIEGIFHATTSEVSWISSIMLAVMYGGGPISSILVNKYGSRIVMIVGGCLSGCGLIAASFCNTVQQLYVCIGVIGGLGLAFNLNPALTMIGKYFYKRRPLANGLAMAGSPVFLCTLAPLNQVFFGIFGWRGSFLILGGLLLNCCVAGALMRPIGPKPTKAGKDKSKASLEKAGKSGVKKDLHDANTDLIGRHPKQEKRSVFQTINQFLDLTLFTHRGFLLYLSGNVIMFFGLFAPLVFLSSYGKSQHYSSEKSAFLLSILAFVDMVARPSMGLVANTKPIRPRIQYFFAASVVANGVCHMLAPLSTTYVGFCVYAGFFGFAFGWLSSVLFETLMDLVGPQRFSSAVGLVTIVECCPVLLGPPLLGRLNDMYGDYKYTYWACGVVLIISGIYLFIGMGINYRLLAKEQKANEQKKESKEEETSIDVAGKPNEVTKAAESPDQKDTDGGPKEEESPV
The experiment is described as follows: Inhibition of MCT1 (unknown origin) at 50 uM relative to control.

Experiment [3] is described as follows: Inhibition of MCT1 in Xenopus laevis Oocyte by lactate transport assay. The experiment is classed as cell-based.

The term inhibition denotes how much of the control response was suppressed. High values mean strong suppression, low ones little suppression. In turn, `COCCOc1cccc2c(C(=O)N=C(N)N)cc(-c3ccccc3)nc12` registered an inhibition in experiment [1] of 62.9%. On to `O=c1cc(-c2ccc(O)cc2)oc2cc(O)cc(O)c12`, for which the inhibition in experiment [2] was found to be 52.5%.

As a reminder, the IC50 is the concentration that gives 50% inhibition. Read a low IC50 as inhibition by little substance. `O=C(O)Cc1ccccc1Nc1c(Cl)cccc1Cl` [DICLOFENAC] gave an IC50 in experiment [3] of 1.45 µM.

For `O=c1c(O)c(-c2ccc(O)c(O)c2)oc2cc(O)cc(O)c12`, the inhibition in experiment [2] turned out to be 84.7%. In experiment [2], `COc1ccc(-c2cc(=O)c3c(O)cc(O)cc3o2)cc1O` showed an inhibition of 49.1%. The molecule `O=c1c(O)c(-c2ccc(O)c(O)c2)oc2cc(O)ccc12` gave an inhibition in experiment [2] of 93.9%. For the molecule `O=c1c(O)c(-c2ccc(O)cc2)oc2cc(O)cc(O)c12`, the inhibition in experiment [2] is 71.3%. As for `O=c1cc(-c2ccccc2)oc2cc(O)cc(O)c12`, in experiment [2], the inhibition turned out to be 48.6%.
